{
  "source": "paper PMC8659078",
  "about": "“A Validated HPLC-PDA-HRMS Method to Investigate the Biological Stability and Metabolism of Antiparasitic Triterpenic Esters” (Molecules, 2021)",
  "key": {"[1]": {"conditions": "microsomes"}, "[2]": {"experiment": "Microsomal stability (pooled male mouse liver microsomes, NADPH regenerating system)", "conditions": "1 mg/mL microsomes, 37 °C"}},
  "data": [
    {"substance": "ursolic acid-3-O-phenyl propionate [UA-3-O-PP]", "values": [
      {"measurement": "mouse in vitro intrinsic clearance class", "setting": "[1]", "result": "low"},
      {"measurement": "Kloss (elimination rate constant)", "setting": "[2]; first-order decay fit", "result": 0.003, "unit": "min⁻¹"},
      {"measurement": "t1/2 (in vitro half-life)", "setting": "[2]; first-order kinetics assumed", "result": 4.405, "unit": "h"},
      {"measurement": "Cl Int (in vitro intrinsic clearance)", "setting": "[2]; linear kinetic assumed", "result": 5.24, "unit": "µg/min/mg"}
    ]}
  ]
}
